Some targets named below: Fc-tagged FZD1 CRD (human, UniProt Q9UP38); Fc-tagged FZD2 CRD (human, UniProt Q14332); Fc-tagged FZD7 CRD (human, UniProt O75084).
Holding throughout (assay): SPR; avidity (IgG)

B1: F^P IgG (antibody, V domains shown)
VH: EVQLVESGGGLVQPGGSLRLSCAASGFNIGSSSIHWVRQAPGKGLEWVASIYSAFASTSYADSVKGRFTISADTSKNTAYLQMNSLRAEDTAVYYCARYHFPFGFALDYWGQGTLVTVSS
VL: DIQMTQSPSSLSASVGDRVTITCRASQSVSSAVAWYQQKPGKAPKLLIYSASSLYSGVPSRFSGSRSGTDFTLTISSLQPEDFATYYCQQGVYLFTFGQGTKVEIK
As for B1, the Kd with Fc-tagged FZD1 CRD is 25.1 pM; with Fc-tagged FZD2 CRD, 23.9 pM; with Fc-tagged FZD7 CRD, 12.3 pM.

The record behind these values is publication PMC6711705 (2019).
